# Measurements from paper PMC5216056 (2017).
# By UniProt entry, the sequences of proteins in these tests, tags left out. Where a name states a change or a piece, a line headed by the entry shows the natural chain unless it says otherwise.
# UniProt Q8R455, whole entry: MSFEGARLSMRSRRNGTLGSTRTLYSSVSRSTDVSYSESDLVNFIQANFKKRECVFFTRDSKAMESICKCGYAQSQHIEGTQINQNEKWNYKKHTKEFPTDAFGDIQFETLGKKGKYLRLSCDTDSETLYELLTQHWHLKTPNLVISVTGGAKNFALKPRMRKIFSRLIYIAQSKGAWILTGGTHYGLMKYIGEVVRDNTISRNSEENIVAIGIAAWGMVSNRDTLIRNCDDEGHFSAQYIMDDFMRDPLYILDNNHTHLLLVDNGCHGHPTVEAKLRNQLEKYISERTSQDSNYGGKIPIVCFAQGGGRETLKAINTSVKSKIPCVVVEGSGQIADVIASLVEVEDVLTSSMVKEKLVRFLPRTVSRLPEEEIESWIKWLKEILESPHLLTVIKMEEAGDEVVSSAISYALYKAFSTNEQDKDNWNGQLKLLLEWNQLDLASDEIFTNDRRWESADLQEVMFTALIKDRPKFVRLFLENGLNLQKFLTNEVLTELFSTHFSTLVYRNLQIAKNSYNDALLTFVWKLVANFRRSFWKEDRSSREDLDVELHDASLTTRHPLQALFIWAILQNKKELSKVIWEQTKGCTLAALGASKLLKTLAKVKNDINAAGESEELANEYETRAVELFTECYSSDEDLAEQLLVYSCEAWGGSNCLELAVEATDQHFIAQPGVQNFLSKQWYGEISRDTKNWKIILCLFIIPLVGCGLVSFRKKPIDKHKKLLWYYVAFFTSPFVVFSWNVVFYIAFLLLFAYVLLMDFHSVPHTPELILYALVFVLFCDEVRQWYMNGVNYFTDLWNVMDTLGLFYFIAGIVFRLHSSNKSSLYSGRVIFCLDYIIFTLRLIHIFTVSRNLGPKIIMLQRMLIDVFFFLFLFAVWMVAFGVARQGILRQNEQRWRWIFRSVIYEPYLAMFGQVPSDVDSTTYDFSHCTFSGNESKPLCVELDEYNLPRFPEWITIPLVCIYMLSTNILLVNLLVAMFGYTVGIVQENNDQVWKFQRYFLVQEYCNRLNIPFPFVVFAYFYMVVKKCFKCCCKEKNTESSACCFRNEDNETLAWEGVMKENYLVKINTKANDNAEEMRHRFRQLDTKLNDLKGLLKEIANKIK
# UniProt Q8NER1, whole entry: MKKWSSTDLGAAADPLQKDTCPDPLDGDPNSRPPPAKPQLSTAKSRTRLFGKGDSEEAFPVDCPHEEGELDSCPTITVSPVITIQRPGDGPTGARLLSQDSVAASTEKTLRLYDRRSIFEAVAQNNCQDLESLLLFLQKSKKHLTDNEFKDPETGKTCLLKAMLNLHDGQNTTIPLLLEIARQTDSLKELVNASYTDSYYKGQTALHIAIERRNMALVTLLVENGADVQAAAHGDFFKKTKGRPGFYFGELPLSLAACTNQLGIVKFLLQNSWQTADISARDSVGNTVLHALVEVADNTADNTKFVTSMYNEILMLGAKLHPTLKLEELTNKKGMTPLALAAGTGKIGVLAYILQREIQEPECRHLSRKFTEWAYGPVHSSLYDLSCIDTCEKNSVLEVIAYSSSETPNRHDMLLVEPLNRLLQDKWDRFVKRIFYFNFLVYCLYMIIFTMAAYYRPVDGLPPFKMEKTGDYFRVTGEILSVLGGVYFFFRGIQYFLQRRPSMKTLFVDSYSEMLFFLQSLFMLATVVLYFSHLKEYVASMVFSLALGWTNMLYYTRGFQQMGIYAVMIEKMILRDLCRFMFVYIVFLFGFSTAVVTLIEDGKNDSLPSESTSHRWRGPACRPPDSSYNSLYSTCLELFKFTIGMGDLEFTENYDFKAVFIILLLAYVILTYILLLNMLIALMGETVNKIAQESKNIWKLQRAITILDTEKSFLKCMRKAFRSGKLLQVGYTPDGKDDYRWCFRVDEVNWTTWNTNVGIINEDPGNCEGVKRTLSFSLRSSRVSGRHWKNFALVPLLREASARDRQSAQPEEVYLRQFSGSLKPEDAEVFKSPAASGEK
# UniProt P21554, whole entry: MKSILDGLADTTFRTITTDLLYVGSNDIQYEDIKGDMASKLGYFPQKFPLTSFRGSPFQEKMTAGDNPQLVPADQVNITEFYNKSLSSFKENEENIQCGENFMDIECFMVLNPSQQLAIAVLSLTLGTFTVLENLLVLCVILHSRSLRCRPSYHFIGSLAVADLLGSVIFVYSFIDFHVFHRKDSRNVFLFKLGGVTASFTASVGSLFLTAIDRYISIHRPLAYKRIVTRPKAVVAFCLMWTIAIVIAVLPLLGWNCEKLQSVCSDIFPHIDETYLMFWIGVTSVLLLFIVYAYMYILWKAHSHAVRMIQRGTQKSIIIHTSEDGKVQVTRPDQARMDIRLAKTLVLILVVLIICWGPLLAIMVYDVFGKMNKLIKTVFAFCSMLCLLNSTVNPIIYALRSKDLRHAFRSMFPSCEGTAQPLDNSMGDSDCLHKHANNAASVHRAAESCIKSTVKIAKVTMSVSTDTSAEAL
# UniProt P08183, whole entry: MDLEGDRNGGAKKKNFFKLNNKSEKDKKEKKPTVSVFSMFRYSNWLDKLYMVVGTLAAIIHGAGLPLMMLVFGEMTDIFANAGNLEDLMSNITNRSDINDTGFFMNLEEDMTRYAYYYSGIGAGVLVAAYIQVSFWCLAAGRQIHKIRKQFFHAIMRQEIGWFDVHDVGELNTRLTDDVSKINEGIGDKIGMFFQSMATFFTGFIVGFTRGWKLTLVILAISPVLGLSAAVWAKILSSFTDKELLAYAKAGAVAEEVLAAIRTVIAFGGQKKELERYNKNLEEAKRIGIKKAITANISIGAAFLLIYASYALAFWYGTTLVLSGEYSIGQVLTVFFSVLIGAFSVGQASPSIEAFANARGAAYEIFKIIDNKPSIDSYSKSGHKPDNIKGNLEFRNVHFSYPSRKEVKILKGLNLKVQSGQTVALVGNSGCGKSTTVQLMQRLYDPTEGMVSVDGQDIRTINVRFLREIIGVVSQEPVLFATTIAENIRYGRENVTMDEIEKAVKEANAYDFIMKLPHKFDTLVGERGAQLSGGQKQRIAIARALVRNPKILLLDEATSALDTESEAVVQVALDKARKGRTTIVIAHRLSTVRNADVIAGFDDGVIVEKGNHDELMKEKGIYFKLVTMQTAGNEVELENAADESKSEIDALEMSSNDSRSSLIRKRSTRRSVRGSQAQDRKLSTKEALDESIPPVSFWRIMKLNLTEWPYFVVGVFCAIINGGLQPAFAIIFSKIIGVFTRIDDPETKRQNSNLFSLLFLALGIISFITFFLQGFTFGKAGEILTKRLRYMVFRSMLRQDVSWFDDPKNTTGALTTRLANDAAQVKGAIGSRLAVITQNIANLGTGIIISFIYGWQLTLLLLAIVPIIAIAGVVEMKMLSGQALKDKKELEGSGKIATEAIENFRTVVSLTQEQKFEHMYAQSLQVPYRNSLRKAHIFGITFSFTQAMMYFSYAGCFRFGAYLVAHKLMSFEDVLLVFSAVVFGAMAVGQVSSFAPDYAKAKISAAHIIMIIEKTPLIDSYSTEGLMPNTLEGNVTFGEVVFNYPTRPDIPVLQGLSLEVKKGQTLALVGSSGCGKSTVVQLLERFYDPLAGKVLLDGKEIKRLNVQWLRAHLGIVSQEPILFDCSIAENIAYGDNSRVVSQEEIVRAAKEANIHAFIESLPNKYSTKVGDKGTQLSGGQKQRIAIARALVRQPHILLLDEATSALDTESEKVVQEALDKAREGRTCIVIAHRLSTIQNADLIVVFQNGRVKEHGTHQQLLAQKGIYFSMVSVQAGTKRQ
# UniProt P47936: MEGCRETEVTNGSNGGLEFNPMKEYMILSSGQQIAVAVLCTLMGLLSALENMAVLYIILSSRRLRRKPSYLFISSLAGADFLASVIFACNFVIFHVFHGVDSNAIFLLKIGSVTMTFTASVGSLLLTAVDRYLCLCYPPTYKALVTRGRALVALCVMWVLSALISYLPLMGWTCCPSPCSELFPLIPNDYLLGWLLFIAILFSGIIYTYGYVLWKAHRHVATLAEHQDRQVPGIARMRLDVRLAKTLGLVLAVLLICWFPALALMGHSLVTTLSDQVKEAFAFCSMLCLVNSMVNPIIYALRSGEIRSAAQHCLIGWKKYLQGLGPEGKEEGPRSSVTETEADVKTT
# UniProt Q9Y2T6: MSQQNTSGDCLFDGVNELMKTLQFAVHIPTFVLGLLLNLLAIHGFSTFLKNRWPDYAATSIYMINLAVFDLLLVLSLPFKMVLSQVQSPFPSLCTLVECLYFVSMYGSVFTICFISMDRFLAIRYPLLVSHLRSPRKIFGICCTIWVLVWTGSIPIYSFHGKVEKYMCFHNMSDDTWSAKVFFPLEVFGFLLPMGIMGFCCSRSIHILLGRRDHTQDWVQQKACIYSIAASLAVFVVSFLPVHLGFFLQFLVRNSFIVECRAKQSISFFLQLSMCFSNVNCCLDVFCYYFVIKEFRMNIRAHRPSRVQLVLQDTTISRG
# UniProt Q9ERZ8, whole entry: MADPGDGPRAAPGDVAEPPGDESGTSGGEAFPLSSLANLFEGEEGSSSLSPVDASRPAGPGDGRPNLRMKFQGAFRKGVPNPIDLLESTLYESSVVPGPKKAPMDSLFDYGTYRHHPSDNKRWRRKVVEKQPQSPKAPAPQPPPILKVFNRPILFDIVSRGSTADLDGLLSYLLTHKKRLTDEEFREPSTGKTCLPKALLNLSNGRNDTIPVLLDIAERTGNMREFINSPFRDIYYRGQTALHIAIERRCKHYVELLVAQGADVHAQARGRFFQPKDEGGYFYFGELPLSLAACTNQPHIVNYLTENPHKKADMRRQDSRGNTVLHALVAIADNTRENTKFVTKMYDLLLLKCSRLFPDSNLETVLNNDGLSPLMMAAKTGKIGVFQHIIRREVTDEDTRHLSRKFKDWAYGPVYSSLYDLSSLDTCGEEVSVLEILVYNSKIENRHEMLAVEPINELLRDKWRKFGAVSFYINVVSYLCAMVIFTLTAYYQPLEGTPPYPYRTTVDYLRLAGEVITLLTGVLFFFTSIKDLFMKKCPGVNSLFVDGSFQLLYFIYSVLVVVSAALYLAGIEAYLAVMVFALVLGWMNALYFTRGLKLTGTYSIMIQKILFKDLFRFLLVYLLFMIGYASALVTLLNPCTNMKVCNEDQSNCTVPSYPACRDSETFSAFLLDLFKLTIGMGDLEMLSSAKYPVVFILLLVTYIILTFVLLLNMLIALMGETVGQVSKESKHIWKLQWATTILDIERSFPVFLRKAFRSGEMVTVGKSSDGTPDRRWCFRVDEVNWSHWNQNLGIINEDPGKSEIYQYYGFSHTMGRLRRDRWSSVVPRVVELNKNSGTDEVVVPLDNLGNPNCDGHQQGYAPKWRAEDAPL
# UniProt Q6RI86, whole entry: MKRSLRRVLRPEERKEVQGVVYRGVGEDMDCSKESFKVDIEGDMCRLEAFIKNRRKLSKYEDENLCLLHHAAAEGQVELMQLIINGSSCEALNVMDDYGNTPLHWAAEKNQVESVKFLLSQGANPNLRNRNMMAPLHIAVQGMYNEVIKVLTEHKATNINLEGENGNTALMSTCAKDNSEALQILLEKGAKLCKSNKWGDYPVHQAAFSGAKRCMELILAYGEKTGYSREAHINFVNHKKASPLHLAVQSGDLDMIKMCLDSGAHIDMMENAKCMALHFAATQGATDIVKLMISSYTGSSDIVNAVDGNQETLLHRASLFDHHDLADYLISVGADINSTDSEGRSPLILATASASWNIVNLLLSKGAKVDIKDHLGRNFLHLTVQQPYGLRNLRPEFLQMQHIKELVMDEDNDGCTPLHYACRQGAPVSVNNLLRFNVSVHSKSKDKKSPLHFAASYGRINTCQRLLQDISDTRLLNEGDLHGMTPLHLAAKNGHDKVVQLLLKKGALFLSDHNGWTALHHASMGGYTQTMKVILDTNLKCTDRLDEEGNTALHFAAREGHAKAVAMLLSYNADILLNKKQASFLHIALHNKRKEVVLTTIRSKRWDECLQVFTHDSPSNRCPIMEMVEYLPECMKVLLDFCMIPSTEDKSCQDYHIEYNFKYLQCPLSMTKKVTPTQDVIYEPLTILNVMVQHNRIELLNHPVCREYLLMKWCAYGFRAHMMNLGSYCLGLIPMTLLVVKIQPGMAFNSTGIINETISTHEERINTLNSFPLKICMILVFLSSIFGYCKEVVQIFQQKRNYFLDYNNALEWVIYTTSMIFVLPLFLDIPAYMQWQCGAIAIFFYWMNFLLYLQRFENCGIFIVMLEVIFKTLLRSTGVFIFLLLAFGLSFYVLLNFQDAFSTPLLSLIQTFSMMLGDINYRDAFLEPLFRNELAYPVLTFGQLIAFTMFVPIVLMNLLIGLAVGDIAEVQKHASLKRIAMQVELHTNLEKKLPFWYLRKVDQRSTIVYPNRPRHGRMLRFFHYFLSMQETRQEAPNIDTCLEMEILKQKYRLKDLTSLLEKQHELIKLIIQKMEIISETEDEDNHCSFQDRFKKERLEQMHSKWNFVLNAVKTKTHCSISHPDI
# Key:
# [1] = logD distribution coefficient
# Rat recombinant TRPM8 = Rat recombinant TRPM8 (Rattus norvegicus, UniProt Q8R455); test: TRP channel [Ca2+]i assay; assay type: cell-based; settings: read-out: TRPM8 IC50 for antagonism of icilin; vs icilin […]
# Rat recombinant TRPV3 = target: T1, Rat recombinant TRPV3 (Rattus norvegicus, UniProt Q4QYD9); assay type: cell-based; settings: read-out: TRPV3 IC50 for antagonism or desensitization; vs thymol 100μM
# T1 sequence (Q4QYD9 1-791): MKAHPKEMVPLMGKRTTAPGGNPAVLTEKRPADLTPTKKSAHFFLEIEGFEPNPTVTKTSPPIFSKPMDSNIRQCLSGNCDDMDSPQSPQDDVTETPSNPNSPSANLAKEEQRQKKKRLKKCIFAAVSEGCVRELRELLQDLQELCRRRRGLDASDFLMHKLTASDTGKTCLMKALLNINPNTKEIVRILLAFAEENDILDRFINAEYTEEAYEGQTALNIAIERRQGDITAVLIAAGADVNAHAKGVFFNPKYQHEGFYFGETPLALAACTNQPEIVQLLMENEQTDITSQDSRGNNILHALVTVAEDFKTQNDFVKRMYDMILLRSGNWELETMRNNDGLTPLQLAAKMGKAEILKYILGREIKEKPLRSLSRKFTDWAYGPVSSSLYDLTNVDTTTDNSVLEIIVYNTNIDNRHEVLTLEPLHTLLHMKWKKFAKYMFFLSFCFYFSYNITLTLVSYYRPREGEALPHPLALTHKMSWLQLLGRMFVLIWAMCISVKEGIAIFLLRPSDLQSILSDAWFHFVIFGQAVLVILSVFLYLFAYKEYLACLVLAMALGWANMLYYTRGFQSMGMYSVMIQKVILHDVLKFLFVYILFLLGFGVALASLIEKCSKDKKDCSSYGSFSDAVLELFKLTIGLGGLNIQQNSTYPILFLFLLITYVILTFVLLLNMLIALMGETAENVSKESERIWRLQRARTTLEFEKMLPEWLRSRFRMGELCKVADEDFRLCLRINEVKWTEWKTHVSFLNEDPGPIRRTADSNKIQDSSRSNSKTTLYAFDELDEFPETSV
# Human recombinant TRPV1 = Human recombinant TRPV1 (Homo sapiens, UniProt Q8NER1); assay type: cell-based; settings: read-out: TRPV1 IC50 for antagonism or desensitization
# hCB1R [2] = target: T2, hCB1R (Homo sapiens, UniProt P21554)
# Rat recombinant TRPV2 = target: T3, Rat recombinant TRPV2 (Rattus norvegicus, UniProt Q9WUD2); assay type: cell-based; settings: read-out: TRPV2 IC50 for antagonism or desensitization; vs LPC 3μM
# T3 sequence (Q9WUD2 1-761): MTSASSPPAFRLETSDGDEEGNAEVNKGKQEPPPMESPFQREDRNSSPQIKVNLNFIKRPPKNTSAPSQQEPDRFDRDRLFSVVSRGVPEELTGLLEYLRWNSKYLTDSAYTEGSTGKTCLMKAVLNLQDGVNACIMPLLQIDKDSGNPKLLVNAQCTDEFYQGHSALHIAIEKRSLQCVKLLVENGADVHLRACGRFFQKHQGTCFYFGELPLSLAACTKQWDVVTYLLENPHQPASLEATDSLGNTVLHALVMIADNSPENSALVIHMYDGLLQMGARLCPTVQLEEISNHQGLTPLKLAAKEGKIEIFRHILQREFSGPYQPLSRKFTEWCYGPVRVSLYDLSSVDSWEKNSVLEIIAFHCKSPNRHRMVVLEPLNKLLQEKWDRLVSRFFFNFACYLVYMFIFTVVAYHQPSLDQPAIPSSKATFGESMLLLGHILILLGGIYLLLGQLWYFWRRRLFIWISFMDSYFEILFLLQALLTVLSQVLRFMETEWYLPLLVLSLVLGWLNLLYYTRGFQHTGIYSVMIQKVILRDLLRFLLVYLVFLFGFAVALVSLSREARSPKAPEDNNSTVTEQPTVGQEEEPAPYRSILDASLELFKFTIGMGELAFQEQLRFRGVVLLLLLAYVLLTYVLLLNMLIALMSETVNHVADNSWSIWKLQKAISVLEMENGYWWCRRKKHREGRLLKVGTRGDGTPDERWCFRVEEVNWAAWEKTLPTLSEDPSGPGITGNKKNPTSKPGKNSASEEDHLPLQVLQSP
# hCB1R [3] = target: T2, hCB1R; remark: listed apart in the source
# human P-gp = human P-gp (Homo sapiens, UniProt P08183); settings: efflux ratio
# [4] = 1 μM
# mouse P-gp = mouse P-gp (Mus musculus, UniProt P21447); settings: efflux ratio
# [5] = i.v., mice
# mCB2R = mCB2R (Mus musculus, UniProt P47936); assay type: biochemical; settings: mouse spleen
# hGPR55 = hGPR55 (Homo sapiens, UniProt Q9Y2T6); assay type: cell-based; settings: β-arrestin recruitment
# mCB1R [6] = target: T4, mCB1R (Mus musculus, UniProt P47746); assay type: binding; settings: mouse brain membranes
# hCB1R [7] = target: T2, hCB1R; remark: listed apart in the source
# hCB1R [8] = target: T2, hCB1R; remark: listed apart in the source
# mCB1R [9] = target: T4, mCB1R; assay type: biochemical; settings: mouse brain
# Rat recombinant TRPV4 = Rat recombinant TRPV4 (Rattus norvegicus, UniProt Q9ERZ8); assay type: cell-based; settings: read-out: TRPV4 IC50 for desensitization; vs 4αPDD 1μM
# Rat recombinant TRPA1 = Rat recombinant TRPA1 (Rattus norvegicus, UniProt Q6RI86)
# [10] = 1 μM; remark: listed apart in the source
# hCB1R [11] = target: T2, hCB1R; remark: listed apart in the source
substance,measurement,setting,value
SR144528,logD,[1],> 3
same,IC50,Rat recombinant TRPM8,2.9 ± 1.3 µM
same,IC50,Rat recombinant TRPV3,> 100 µM
same,IC50,Human recombinant TRPV1,> 100 µM
same,pEC50 ± SEM cAMP hCB1R,hCB1R [2],< 5
same,IC50,Rat recombinant TRPV2,> 50 µM
same,pEC50 ± SEM pERK hCB1R,hCB1R [3],< 4
same,P-gp (ER) human,human P-gp,4.1
same,CL microsomes human,[4],129 µL/min/mg protein
same,P-gp (ER) mouse,mouse P-gp,5.6
same,AUCinf,[5],1440 ng·h/mL
same,AUCinf/dose,[5],1440 kg·ng·h/mL/mg
same,AUClast,[5],1430 ng·h/mL
same,CL,[5],11.5 mL/min/kg
same,T1/2,[5],2.1 h
same,Vss,[5],0.50 L/kg and < 1 L/kg
same,C0,"[5]; 1.0-2.0 mg/kg, extrapolated",15800 ng/mL
same,pEC50 ± SEM cAMP mCB2R,mCB2R,8.25 ± 0.29
same,GPR55 pEC50 (± SEM),hGPR55,< 5
same,pKi ± SEM mCB1R,mCB1R [6],6.92 ± 0.2
same,pEC50 ± SEM β-AR recruitment hCB1R,hCB1R [7],4.97 ± 0.13
same,pEC50 ± SEM GIRK hCB1R,hCB1R [8],< 5
same,pEC50 ± SEM cAMP mCB1R,mCB1R [9],5.54 ± 0.16
same,IC50,Rat recombinant TRPV4,> 100 µM
same,Pct acceptor,PAMPA,0%
same,Pct donor,PAMPA,47%
same,Pct membrane,"PAMPA, compound found in membranes",54%
same,Pampa Peff,membrane permeation coefficient,0 cm/s*10-6
same,IC50,"Rat recombinant TRPA1; read-out: TRPA1 IC50 for antagonism or desensitization, vs AITC 100μM, 5 min pre-incubation",> 100 µM
same,EC50,Rat recombinant TRPA1; read-out: TRPA1 Potency EC50,8.9 µM
same,CL microsomes mouse,[10],446 µL/min/mg protein
same,pEC50 ± SEM GTPγS hCB1R,hCB1R [11],< 5

# Several values for one entry are separate records, joined by “and”; a condition that tells them apart may be missing. Equal entries are not always repeated.
